Experimental data from PubChem BioAssay (EPA / NIEHS).
The entries are a selection whose mix differs from that of the whole data set. Results filed as inconclusive are left out. Calls of active or inactive are those of the source. Rule for the calls, unless noted: active = hit-call score of the fitted dose curve at least 0.9, where 1 is the maximum; inactive = score below 0.9.

By UniProt entry, the sequences of proteins in these tests, tags left out.
UniProt Q14994, whole entry: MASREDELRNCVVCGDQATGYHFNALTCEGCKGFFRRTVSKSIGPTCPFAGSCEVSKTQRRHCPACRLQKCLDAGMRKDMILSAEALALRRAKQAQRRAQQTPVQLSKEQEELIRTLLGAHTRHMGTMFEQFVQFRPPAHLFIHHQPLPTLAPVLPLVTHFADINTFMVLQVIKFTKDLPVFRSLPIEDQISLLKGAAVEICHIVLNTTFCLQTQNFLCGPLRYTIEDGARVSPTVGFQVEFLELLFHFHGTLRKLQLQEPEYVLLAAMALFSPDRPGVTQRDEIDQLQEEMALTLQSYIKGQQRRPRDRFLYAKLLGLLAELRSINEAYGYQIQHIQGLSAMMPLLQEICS
UniProt P17861, whole entry: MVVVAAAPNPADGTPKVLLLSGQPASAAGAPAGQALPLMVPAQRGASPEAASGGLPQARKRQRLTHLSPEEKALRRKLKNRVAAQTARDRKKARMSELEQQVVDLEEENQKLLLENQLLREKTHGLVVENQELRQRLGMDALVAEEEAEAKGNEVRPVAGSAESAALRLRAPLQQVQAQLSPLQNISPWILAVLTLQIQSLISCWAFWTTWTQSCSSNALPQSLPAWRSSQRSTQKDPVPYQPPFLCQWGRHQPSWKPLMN
UniProt P10275, whole entry: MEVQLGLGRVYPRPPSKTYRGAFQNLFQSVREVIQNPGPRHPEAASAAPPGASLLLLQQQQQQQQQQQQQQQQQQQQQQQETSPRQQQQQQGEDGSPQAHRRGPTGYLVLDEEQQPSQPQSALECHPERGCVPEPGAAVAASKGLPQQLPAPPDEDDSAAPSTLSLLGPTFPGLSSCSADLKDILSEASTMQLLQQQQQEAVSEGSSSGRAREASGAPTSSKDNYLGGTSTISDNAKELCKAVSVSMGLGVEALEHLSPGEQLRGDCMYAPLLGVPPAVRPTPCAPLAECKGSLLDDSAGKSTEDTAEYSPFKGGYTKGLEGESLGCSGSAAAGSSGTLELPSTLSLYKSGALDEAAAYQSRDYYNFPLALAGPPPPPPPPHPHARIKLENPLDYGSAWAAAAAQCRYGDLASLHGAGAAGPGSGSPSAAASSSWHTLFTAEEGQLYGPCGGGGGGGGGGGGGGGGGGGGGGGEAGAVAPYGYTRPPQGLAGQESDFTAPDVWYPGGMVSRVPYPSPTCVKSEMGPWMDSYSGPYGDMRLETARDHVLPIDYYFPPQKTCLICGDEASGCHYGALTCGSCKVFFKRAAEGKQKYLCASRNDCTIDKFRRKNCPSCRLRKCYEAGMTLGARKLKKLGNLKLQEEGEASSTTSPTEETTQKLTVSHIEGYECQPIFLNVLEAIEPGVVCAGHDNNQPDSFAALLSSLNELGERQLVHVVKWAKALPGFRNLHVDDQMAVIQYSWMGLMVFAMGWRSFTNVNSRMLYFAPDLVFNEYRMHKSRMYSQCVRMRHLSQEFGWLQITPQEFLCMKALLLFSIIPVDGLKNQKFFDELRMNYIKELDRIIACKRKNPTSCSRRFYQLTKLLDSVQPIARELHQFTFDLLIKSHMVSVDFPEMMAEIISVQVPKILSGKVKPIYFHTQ
UniProt P04150, whole entry: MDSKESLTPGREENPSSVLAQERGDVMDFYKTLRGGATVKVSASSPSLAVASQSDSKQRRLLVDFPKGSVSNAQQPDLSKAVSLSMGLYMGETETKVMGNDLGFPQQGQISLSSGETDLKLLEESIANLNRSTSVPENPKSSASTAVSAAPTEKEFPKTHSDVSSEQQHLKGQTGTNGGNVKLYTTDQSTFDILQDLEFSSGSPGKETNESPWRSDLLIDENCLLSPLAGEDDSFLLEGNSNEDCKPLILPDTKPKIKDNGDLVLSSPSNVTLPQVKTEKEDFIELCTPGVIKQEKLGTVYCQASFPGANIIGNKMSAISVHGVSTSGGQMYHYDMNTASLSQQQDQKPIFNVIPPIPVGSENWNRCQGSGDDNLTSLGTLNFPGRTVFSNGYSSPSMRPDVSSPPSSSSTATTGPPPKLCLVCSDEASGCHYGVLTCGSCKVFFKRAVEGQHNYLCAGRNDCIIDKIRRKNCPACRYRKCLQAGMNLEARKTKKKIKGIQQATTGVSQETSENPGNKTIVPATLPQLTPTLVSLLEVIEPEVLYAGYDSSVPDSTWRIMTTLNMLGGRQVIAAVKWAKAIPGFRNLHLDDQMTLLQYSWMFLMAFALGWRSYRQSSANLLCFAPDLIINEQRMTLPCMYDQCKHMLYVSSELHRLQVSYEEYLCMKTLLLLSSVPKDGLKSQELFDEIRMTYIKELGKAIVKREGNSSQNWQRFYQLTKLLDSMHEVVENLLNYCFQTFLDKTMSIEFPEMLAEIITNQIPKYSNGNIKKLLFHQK
UniProt Q96RI1, whole entry: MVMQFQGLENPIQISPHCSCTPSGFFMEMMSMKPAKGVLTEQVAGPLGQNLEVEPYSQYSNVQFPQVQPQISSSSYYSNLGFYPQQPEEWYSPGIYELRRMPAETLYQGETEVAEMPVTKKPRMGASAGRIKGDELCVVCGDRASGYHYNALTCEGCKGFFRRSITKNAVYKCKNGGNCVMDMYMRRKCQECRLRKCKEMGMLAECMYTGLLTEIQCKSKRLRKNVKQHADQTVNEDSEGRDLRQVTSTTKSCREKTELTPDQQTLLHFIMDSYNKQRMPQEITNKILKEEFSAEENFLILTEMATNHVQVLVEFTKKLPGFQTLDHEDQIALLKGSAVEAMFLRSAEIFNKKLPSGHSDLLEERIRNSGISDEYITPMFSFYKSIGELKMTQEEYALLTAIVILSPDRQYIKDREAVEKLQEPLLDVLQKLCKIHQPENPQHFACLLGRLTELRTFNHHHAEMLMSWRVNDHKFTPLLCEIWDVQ
UniProt Q13133, whole entry: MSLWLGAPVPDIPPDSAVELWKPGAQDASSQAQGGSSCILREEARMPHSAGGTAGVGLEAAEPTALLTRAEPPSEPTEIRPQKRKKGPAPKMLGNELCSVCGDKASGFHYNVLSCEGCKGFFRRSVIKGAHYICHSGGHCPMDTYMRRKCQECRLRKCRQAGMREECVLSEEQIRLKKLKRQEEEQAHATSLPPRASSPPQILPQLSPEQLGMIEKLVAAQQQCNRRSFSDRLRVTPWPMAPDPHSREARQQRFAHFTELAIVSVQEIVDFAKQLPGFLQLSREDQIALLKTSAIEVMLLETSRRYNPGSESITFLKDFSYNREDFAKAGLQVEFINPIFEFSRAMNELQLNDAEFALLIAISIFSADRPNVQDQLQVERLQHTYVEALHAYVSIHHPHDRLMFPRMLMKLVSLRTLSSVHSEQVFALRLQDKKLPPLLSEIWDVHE

system: not listed separately; test: ATG_TCF_b_cat_CIS: Attagene CIS-FACTORIAL HepG2 Assay for human T-Cell-Factor with beta-catenin (TCF/b-cat) (AID 2282965); details: HepG2 TCF/beta-catenin cis-reporter transcription, actives raise or lower the signal
Method in brief: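 Measured: reporter mRNA in HepG2 transiently transfected with cis-promoter reporter units, 24 h after chemical addition. Fitting was bidirectional, DMSO as negative control.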

| SMILES | outcome |
| --- | --- |
| CN(C)CCCl | inactive |
| Cc1cccc([N+](=O)[O-])c1[N+](=O)[O-] | inactive |
| CC(C)N(CCO)C(C)C | inactive |
| Cc1ccc([N+](=O)[O-])c([N+](=O)[O-])c1 | inactive |
| Cc1ccc([N+](=O)[O-])cc1[N+](=O)[O-] | inactive |
| O=[N+]([O-])c1cccc([N+](=O)[O-])c1 | inactive |
| O=[N+]([O-])OCC(CO[N+](=O)[O-])(CO[N+](=O)[O-])CO[N+](=O)[O-] | inactive |
| CC(C)OP(C)(=O)OC(C)C | inactive |
| N#CBr | inactive |
| COP(C)(=O)OC | inactive |
| Cc1c([N+](=O)[O-])cccc1[N+](=O)[O-] | inactive |
| COc1ccc([N+](=O)[O-])cc1[N+](=O)[O-] | inactive |

system: not listed separately; test: ATG_TAL_CIS: Attagene CIS-FACTORIAL HepG2 Assay for human TAL Basal Promoter (AID 2282966); details: HepG2 Attagene cis-factorial TAL promoter reporter; actives raise or lower the signal;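 note: background control endpoint measuring basal TAL promoter reporter mRNA not a specific factor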
Method in brief: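 Human hepatoma HepG2 cells, transfected with promoter-regulated reporter units, were treated 24 h. Reporter transcript levels, measured through RT-PCR and capillary electrophoresis, were fitted for gain or loss relative to DMSO.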

| SMILES | outcome |
| --- | --- |
| CN(C)CCCl | inactive |
| Cc1cccc([N+](=O)[O-])c1[N+](=O)[O-] | inactive |
| CC(C)N(CCO)C(C)C | inactive |
| Cc1ccc([N+](=O)[O-])c([N+](=O)[O-])c1 | inactive |
| Cc1ccc([N+](=O)[O-])cc1[N+](=O)[O-] | inactive |
| O=[N+]([O-])c1cccc([N+](=O)[O-])c1 | inactive |
| O=[N+]([O-])OCC(CO[N+](=O)[O-])(CO[N+](=O)[O-])CO[N+](=O)[O-] | inactive |
| CC(C)OP(C)(=O)OC(C)C | inactive |
| N#CBr | inactive |
| COP(C)(=O)OC | inactive |
| Cc1c([N+](=O)[O-])cccc1[N+](=O)[O-] | inactive |
| COc1ccc([N+](=O)[O-])cc1[N+](=O)[O-] | inactive |

system: not listed separately; test: ATG_TGFb_CIS: Attagene CIS-FACTORIAL HepG2 Assay for human Transforming Growth Factor (TGF) (AID 2282967); details: HepG2 Attagene CIS TGFb reporter, mRNA transcription; actives raise or lower the signal
Method in brief: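 Readout: fluorescently labeled reporter cDNA fragments resolved by capillary electrophoresis after RT-PCR. Transfected HepG2 cells dosed for 24 h; endogenous TF activity at TGFB1-linked cis element; gain or loss fitted relative to DMSO.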

| SMILES | outcome |
| --- | --- |
| CN(C)CCCl | inactive |
| Cc1cccc([N+](=O)[O-])c1[N+](=O)[O-] | inactive |
| CC(C)N(CCO)C(C)C | inactive |
| Cc1ccc([N+](=O)[O-])c([N+](=O)[O-])c1 | inactive |
| Cc1ccc([N+](=O)[O-])cc1[N+](=O)[O-] | inactive |
| O=[N+]([O-])c1cccc([N+](=O)[O-])c1 | inactive |
| O=[N+]([O-])OCC(CO[N+](=O)[O-])(CO[N+](=O)[O-])CO[N+](=O)[O-] | inactive |
| CC(C)OP(C)(=O)OC(C)C | inactive |
| N#CBr | inactive |
| COP(C)(=O)OC | inactive |
| Cc1c([N+](=O)[O-])cccc1[N+](=O)[O-] | inactive |
| COc1ccc([N+](=O)[O-])cc1[N+](=O)[O-] | inactive |

target: Nuclear receptor subfamily 1 group I member 3 (Homo sapiens) (UniProt Q14994); test: ATG_CAR_TRANS: Attagene TRANS-FACTORIAL HepG2 Assay for human Constitutive Androstane Receptor (CAR) (AID 2282969; active = hit-call score of the fitted dose curve at least 0.9, where 1 is the maximum;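 note: activators raise reporter mRNA above DMSO so AC50 marks induction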); details: HepG2 Attagene TRANS-FACTORIAL CAR reporter
Method in brief: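 Signal is reporter mRNA induction relative to DMSO, measured 24 h after dosing by RT-PCR with fluorescent primer extension and capillary electrophoresis. Human HepG2 liver cells carried transiently transfected chimeric NR-Gal4/GAL4-UAS reporter constructs.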

| SMILES | outcome |
| --- | --- |
| Cc1cccc([N+](=O)[O-])c1[N+](=O)[O-] | inactive |
| Cc1ccc([N+](=O)[O-])c([N+](=O)[O-])c1 | inactive |
| O=[N+]([O-])OCC(CO[N+](=O)[O-])(CO[N+](=O)[O-])CO[N+](=O)[O-] | inactive |
| COc1ccc([N+](=O)[O-])cc1[N+](=O)[O-] | inactive |

target: X-box-binding protein 1 (Homo sapiens) (UniProt P17861); test: ATG_Xbp1_CIS: Attagene CIS-FACTORIAL HepG2 Assay for human X-box Binding Protein 1 (XBP1) (AID 2282972); details: HepG2 XBP1 cis-element reporter, Attagene multiplex; actives raise or lower the signal
Method in brief: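 Changes in reporter transcript abundance, read by RT-PCR and capillary electrophoresis, reflect endogenous transcription factor activity. Transfected HepG2 cells received compound for 24 hours; DMSO defined baseline for bidirectional analysis.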

| SMILES | outcome | AC50 |
| --- | --- | --- |
| CN(C)CCCl | inactive |  |
| Cc1cccc([N+](=O)[O-])c1[N+](=O)[O-] |  | active: 117 µM |
| CC(C)N(CCO)C(C)C | inactive |  |
| Cc1ccc([N+](=O)[O-])c([N+](=O)[O-])c1 | inactive |  |
| Cc1ccc([N+](=O)[O-])cc1[N+](=O)[O-] | inactive |  |
| O=[N+]([O-])c1cccc([N+](=O)[O-])c1 | inactive |  |
| O=[N+]([O-])OCC(CO[N+](=O)[O-])(CO[N+](=O)[O-])CO[N+](=O)[O-] | inactive |  |
| CC(C)OP(C)(=O)OC(C)C | inactive |  |
| N#CBr | inactive |  |
| COP(C)(=O)OC | inactive |  |
| Cc1c([N+](=O)[O-])cccc1[N+](=O)[O-] | inactive |  |
| COc1ccc([N+](=O)[O-])cc1[N+](=O)[O-] | inactive |  |

target: Androgen receptor (Homo sapiens) (UniProt P10275); test: ATG_AR_TRANS: Attagene TRANS-FACTORIAL HepG2 Assay for human Androgen Receptor (AR) (AID 2282973; active = hit-call score of the fitted dose curve at least 0.9, where 1 is the maximum); details: HepG2 Attagene TRANS-FACTORIAL AR reporter transcription
Method in brief: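 Chimeric nuclear receptor–Gal4 activity was assessed in human HepG2 hepatocytes after 24 h chemical dosing. Induced reporter mRNA was detected via labelled RT-PCR fragments on capillary electrophoresis, and gain of signal was analysed against DMSO.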

| SMILES | outcome |
| --- | --- |
| Cc1cccc([N+](=O)[O-])c1[N+](=O)[O-] | inactive |
| O=[N+]([O-])OCC(CO[N+](=O)[O-])(CO[N+](=O)[O-])CO[N+](=O)[O-] | inactive |
| N#CBr | inactive |

system: not listed separately; test: ATG_M_19_TRANS: Attagene TRANS-FACTORIAL HepG2 Assay for M19 Transcription Factor (Internal Marker) (AID 2282974; active = hit-call score of the fitted dose curve at least 0.9, where 1 is the maximum); details: HepG2 Attagene TRANS-FACTORIAL M19 internal marker reporter
Method in brief: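 Transfected HepG2 (GAL4-UAS MRTUs), 24 h compound, TriZol RNA, DNase-treated RT, reporter PCR, FAM label, HpaI digest, CE fluorescence; gain vs DMSO.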

| SMILES | outcome |
| --- | --- |
| CN(C)CCCl | inactive |
| O=[N+]([O-])c1cccc([N+](=O)[O-])c1 | inactive |
| O=[N+]([O-])OCC(CO[N+](=O)[O-])(CO[N+](=O)[O-])CO[N+](=O)[O-] | inactive |
| COc1ccc([N+](=O)[O-])cc1[N+](=O)[O-] | inactive |

system: not listed separately; test: ATG_GAL4_TRANS: Attagene TRANS-FACTORIAL HepG2 Assay for GAL4 (Internal Marker) (AID 2282976; active = hit-call score of the fitted dose curve at least 0.9, where 1 is the maximum); details: HepG2 Attagene TRANS GAL4 internal marker reporter
Method in brief: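 Liver HepG2 line bearing multiplexed GAL4-UAS reporter constructs; 24 h chemical treatment. Transcripts were quantified as fluorescent fragments on capillary electrophoresis after RT-PCR and HpaI cut, with activity fitted upward from DMSO.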

| SMILES | outcome |
| --- | --- |
| O=[N+]([O-])OCC(CO[N+](=O)[O-])(CO[N+](=O)[O-])CO[N+](=O)[O-] | inactive |
| CC(C)OP(C)(=O)OC(C)C | inactive |
| COP(C)(=O)OC | inactive |

target: Glucocorticoid receptor (Homo sapiens) (UniProt P04150); test: ATG_GR_TRANS: Attagene TRANS-FACTORIAL HepG2 Assay for human Glucocorticoid Receptor (GR) (AID 2282978; active = hit-call score of the fitted dose curve at least 0.9, where 1 is the maximum;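 note: activators score as hits since higher reporter transcript over DMSO is fitted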); details: HepG2 Attagene TRANS GR reporter, mRNA transcription

| SMILES | outcome |
| --- | --- |
| Cc1ccc([N+](=O)[O-])c([N+](=O)[O-])c1 | inactive |
| O=[N+]([O-])OCC(CO[N+](=O)[O-])(CO[N+](=O)[O-])CO[N+](=O)[O-] | inactive |
| COP(C)(=O)OC | inactive |
| COc1ccc([N+](=O)[O-])cc1[N+](=O)[O-] | inactive |

target: Bile acid receptor (Homo sapiens) (UniProt Q96RI1); test: ATG_FXR_TRANS: Attagene TRANS-FACTORIAL HepG2 Assay for Farnesoid X Receptor (FXR) (AID 2282979; active = hit-call score of the fitted dose curve at least 0.9, where 1 is the maximum;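 note: hits raise reporter mRNA above DMSO so AC50 marks FXR activation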); details: HepG2 Attagene TRANS FXR-GAL4 reporter transcription
Method in brief: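 After 24 h chemical treatment of transfected HepG2 cells, GAL4-UAS reporter transcripts driven by an exogenous FXR-GAL4 fusion were measured by RT-PCR and capillary electrophoresis. Increases over DMSO were fitted.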

| SMILES | outcome |
| --- | --- |
| CC(C)N(CCO)C(C)C | inactive |
| O=[N+]([O-])c1cccc([N+](=O)[O-])c1 | inactive |
| O=[N+]([O-])OCC(CO[N+](=O)[O-])(CO[N+](=O)[O-])CO[N+](=O)[O-] | inactive |
| N#CBr | inactive |

target: Oxysterols receptor LXR-alpha (Homo sapiens) (UniProt Q13133); test: ATG_LXRa_TRANS: Attagene TRANS-FACTORIAL HepG2 Assay for human Liver X Receptor alpha (LXRa) (AID 2282980; active = hit-call score of the fitted dose curve at least 0.9, where 1 is the maximum); details: HepG2 Attagene TRANS reporter, LXRa transactivation
Method in brief: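 In this multiplexed TRANS system, compounds act on HepG2 cells carrying GAL4-UAS reporter units and a receptor-GAL4 fusion for 24 h. Induced reporter RNA is amplified, fluorescently labelled and sized by capillary electrophoresis, with DMSO as baseline.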

| SMILES | outcome |
| --- | --- |
| CN(C)CCCl | inactive |
| Cc1cccc([N+](=O)[O-])c1[N+](=O)[O-] | inactive |
| Cc1ccc([N+](=O)[O-])c([N+](=O)[O-])c1 | inactive |
| COP(C)(=O)OC | inactive |
| COc1ccc([N+](=O)[O-])cc1[N+](=O)[O-] | inactive |
